Here are results for one compound from ChEMBL document CHEMBL1121943, “Benzeneacetamide amines: structurally novel non-m mu opioids” (1982).

Assay [1] is filed under the species Mus musculus. In words: Tested for effective dose required to produce antinociceptive activity in mice by tail pinch method.
The species entered for assay [2] is Mus musculus. As to the kind of experiment: Tested for effective dose required to produce antinociceptive activity in mice by HCl writhing method. Background: An intraperitoneal irritant provokes the stretching counted in writhing tests.
For assay [3], the species on record is Mus musculus. As to the kind of experiment: Tested for effective dose required to produce antinociceptive activity in mice by tail flick method. For orientation: In hot-plate and tail-flick tests a longer latency is read as antinociception.

Broadly, the ED50 is the dose that gives a 50% effect, or the effect in half of the subjects. Lower therefore signals an effect at a small dose. As to `CN(C)[C@@H]1CCCC[C@H]1N(C)C(=O)Cc1ccc(Cl)c(Cl)c1`, the ED50 was found to be 7 mg/kg in the assay filed under Mus musculus [1], 3.1 mg/kg in the assay filed under Mus musculus [2] and 2.8 mg/kg in the assay filed under Mus musculus [3].
